Results reported in ChEMBL document CHEMBL1137837, “Long-chain formoterol analogues: an investigation into the effect of increasing amino-substituent chain length on the beta2-adrenoceptor activity” (Bioorg Med Chem Lett, 2004).

What was measured:
Oryctolagus cuniculus [1] = species: Oryctolagus cuniculus; assay: Concentration required to inhibit electrically induced contraction of superfused guinea-pig trachea was determined
Oryctolagus cuniculus [2] = species: Oryctolagus cuniculus; assay: Duration action in guinea pig

COc1ccc(CC(C)NCC(O)c2ccc(O)c(NC=O)c2)cc1 (configuration not stated) [FORMOTEROL]
IC50 (Oryctolagus cuniculus [1]): 1.4 nM | Duration (Oryctolagus cuniculus [2]): 1.92 h
